# According to PubChem BioAssay AID368 (University of Pittsburgh Molecular Library Screening Center, 2006):
# The chains behind the UniProt entries cited, without tags or fusion partners.
# UniProt P30305, whole entry: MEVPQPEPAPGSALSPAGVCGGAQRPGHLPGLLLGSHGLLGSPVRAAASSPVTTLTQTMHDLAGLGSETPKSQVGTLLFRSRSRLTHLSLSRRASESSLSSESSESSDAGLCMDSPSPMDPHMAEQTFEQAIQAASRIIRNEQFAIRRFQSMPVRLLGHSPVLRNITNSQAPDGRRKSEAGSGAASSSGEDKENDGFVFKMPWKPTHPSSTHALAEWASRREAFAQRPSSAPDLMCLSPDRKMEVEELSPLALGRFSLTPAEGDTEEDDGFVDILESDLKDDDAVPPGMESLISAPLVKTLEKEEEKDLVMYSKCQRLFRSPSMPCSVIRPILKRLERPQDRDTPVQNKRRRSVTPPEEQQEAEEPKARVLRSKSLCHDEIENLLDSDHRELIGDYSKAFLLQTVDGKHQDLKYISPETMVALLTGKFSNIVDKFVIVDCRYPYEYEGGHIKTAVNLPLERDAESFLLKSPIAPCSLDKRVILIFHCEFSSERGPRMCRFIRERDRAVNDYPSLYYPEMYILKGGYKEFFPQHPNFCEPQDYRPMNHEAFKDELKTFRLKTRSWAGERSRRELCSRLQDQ
# The entries are a selection whose mix differs from that of the whole data set. Active and inactive are the calls of the source. No stated cut-off is given here; in the data, active means inhibition above about 50%; inactive means the rest.
# Target: M-phase inducer phosphatase 2 (Homo sapiens) (UniProt P30305)
# Assay: human Cdc25B tyrosine phosphatase blockers – biochemical, OMFP fluorescence, catalytic domain, primary screen (AID 368)
# Conditions: recombinant Cdc25B, OMFP fluorescence Ex485/Em525; hits give high values;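 compounds tested at 10 µM final in the well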
row,Compound,inhibition
1,N/C(=N\O)c1c(N)no[n+]1[O-],inactive: -5.11%
2,Fc1ccccc1NC1CCN(Cc2ccccc2)CC1,inactive: -4.12%
3,CCOc1ncccc1C(=O)NCC1(N2CCOCC2)CCCCC1,inactive: -3.35%
4,CCC(CO)(C(=O)OC1CN2CCC1CC2)c1ccccc1 (configuration not stated),inactive: -5.1%
5,O=C(OC1CN2CCC1CC2)C1c2ccccc2Oc2ccccc21 (configuration not stated),inactive: -1.85%
6,COc1ccc(NC2CCN(CCc3ccccc3)CC2)c(OC)c1,inactive: -10.5%
7,N#CC1(Nc2ccccc2)CCN(CCc2ccccc2)CC1,inactive: -2.57%
